Target: T1, P-glycoprotein 1 (P-gp) (Homo sapiens, UniProt P08183)
T1 construct: its P-gp overexpressing variant (SW1573/PGP); endogenous in cells; host or cells: SW1573 and SW1573/PGP (SW1573/Pgp) human non-small cell lung cancer cells, provided by Dr. G. J. Peters (Amsterdam)
Test: P-glycoprotein assay (SW1573/PGP vs SW1573, resistance factor)
Format: cell-based
Excerpt: Next, we studied if the compounds could be substrates for P-glycoprotein 1 (P-gp). P-gp is an important protein of the cell membrane that pumps xenobiotics out of cells. One of the resistance mechanisms to anticancer drugs involves the overexpression of P-gp by cancer cells, rendering these cancers multidrug resistant. Therefore, it is relevant to know whether compounds are substrates for P-gp or not. As a model to test the effect of P-gp overexpression in our compounds, we used a cell line-based assay. We selected one wild type human lung cancer cell line (SW1573) and its P-gp overexpressing variant (SW1573/PGP). In this test, cells were exposed to the compounds for 48 h in the absence or the presence of 10 µM verapamil, a well-known P-gp inhibitor [20].
The antiproliferative activity was tested in vitro against human cancer cells using the protocol of the National Cancer Institute (NCI) of the USA16 with minor modifications. The following densities (cells per well) were used: 2500 (A549, HBL-100, HeLa and SW1573), 5000 (T-47D, WiDr and SW1573/PGP), and 7000 (BJ-hTERT). Samples for testing were dissolved initially in DMSO at 40 mM, i.e., 400 times the maximum test concentration. Abiraterone and galeterone were used as reference drugs for antiproliferative tests, verapamil was used as a P-gp transport inhibitor in SW1573/Pgp experiments, and their stock solutions were prepared in DMSO at 40 mM. Paclitaxel and vinblastine were used as positive controls in SW1573/Pgp experiments and were initially dissolved in DMSO at 4 mM. For each test compound, the cells were exposed to serial decimal dilutions in the range of 0.001–100 μM for a period of 48 h. Cell culture medium containing verapamil was prepared by adding the final concentration of verapamil of 10 μM. For each product GI50 values were calculated according to the NCI formulas.

Amino acid sequences for entries named in this document (tags omitted).
UniProt P08183, whole entry: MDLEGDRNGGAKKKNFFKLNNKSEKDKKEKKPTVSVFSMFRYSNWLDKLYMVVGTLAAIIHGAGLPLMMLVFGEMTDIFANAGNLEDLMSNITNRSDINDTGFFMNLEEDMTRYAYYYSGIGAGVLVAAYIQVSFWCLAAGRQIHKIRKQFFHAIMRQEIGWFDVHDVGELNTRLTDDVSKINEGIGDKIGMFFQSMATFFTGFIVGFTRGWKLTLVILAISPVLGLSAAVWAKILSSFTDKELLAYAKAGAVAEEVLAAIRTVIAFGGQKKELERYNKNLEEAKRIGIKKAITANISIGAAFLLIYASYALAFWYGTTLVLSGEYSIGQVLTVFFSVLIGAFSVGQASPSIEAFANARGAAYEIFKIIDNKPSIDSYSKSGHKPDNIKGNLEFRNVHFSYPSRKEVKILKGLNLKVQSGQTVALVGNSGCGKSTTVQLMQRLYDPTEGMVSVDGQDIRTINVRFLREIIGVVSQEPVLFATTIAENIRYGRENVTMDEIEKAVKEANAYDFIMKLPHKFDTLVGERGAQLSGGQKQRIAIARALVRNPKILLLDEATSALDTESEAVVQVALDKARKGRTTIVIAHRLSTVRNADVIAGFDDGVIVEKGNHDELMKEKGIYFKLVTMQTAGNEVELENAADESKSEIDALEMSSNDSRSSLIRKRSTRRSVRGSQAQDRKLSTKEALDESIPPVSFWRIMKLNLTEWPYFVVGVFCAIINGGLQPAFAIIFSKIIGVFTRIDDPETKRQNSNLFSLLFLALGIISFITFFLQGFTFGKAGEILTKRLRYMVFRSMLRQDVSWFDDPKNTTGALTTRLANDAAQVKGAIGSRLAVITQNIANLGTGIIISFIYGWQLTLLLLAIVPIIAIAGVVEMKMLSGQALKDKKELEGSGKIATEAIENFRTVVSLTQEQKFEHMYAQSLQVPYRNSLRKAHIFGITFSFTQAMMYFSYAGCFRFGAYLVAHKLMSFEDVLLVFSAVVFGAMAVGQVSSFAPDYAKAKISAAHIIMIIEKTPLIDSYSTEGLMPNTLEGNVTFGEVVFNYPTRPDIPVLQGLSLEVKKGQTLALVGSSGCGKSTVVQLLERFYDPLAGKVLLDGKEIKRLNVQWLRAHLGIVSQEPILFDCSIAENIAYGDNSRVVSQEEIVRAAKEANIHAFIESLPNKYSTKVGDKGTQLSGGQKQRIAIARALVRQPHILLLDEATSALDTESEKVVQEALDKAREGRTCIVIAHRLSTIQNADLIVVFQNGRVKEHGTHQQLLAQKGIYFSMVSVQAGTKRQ

20-Oxopregna-5,16-dien-3β-yl Acetate [Compound 6]
substrate for P-gp (SW1573 vs SW1573/PGP, with or without 10 µM verapamil): not substrates for P-gp
Rf w Verapamil (ratio between GI50 values in SW1573/PGP and SW1573 cells, with 10 µM verapamil): 1.3
Rf w/o Verapamil (ratio between GI50 values in SW1573/PGP and SW1573 cells, without verapamil): 1.4
